The record followed here is patent US6838477B2, “Lactacystin analogs” (President and Fellows of Harvard College, priority 1995, dated 2005).

By UniProt entry, the sequences of proteins in these tests, tags left out. Where a name states a change or a piece, a line headed by the entry shows the natural chain unless it says otherwise.
UniProt Q32KL2: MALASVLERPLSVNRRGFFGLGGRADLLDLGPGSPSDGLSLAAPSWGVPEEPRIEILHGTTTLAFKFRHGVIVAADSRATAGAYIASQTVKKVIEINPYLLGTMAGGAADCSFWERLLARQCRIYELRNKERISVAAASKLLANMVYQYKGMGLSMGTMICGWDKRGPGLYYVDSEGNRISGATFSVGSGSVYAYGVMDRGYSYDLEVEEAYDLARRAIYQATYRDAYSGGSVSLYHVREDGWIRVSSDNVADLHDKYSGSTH

The assay addresses T1, 20S proteasome chymotrypsin-like activity (Bos taurus, UniProt Q32KL2).
T1 construct: from tissue; host or cells: bovine brain
Description: Kinetics of inhibition of 20S proteasome chymotrypsin-like activity (Suc-LLVY-AMC). The class given is biochemical, bovine. The settings on record: compound 12.5 μM; 25° C. The method, then:
Experiments involving the proteasome were performed as follows: 20S proteasome (˜5 ng/μl) in 10 mM Tris-HCl, pH 7.5, 1 mM EDTA was incubated at 25° C. in the presence of lactacystin or lactacystin analogs in DMSO or MeOH [not exceeding 5% (v/v)]. Aliquots for fluorescence assay were removed at various times following addition of compound and diluted in 10 mM Tris-HCl, pH 7.5, 1 mM EDTA containing fluorogenic peptide substrates (100 μM final). Suc-LLVY-AMC, Cbz-GGR-βNA and […] (AMC=7-amido-4-methylcoumarin; βNA=β-naphthylamide) were used to assay for the chymotrypsin-like, trypsin-like and peptidylglutamyl-peptide hydrolyzing activities, respectively.
Fluorescent emission at 460 nm with excitation at 380 nm was measured for AMC-containing substrates, and emission at 410 nm with excitation at 335 nm was measured for βNA-containing substrates. The fluorescence assays were conducted at 25° C., each experiment was performed at least three times, and values represent mean±standard deviation.
The reversibility of the inhibitory effects was assessed by measuring residual peptidase activity after removal of excess inhibitor by extensive serial dilution/ultrafiltration.
With des(hydroxyisobutyl)-lactacystin, the “κassoc = κobs/[I], Chymotrypsin-like activity (Suc-LLVY-AMC)” value is given as “No inhibition”. To lactacystin amide belongs 306 ± 99 s^−1M^−1; to phenylacetyl lactacystin, 179 ± 19 s^−1M^−1.
